Experimental data: patent US20140205583A1, “USE OF PLP WITH PEG-rMETase IN VIVO FOR ENHANCED EFFICACY” (AntiCancer, Inc., priority 2003, published 2014)
Where “and” joins values, the source holds several entries; their conditions need not be identical. Identical values can stand only once.

Key:
[1] = Pharmacokinetics: plasma enzyme activity following intravenous injection of naked and PEGylated rMETase in mice; assay type: in vivo, Athymic nude (nu/nu) mice
Procedure: rMETase activity was determined from α-ketobutyrate produced from L-methionine according to the method of Tanaka, H., et al., Biochemistry (1977) 16:100-106, with slight modification. 0.5 ml of sample diluted in 100 mM potassium phosphate buffer pH 8.0, containing 0.01% DTT, 1 mM EDTA Nae, 10 μM PLP and 0.05% Tween 80, was mixed with 0.5 ml of substrate solution containing 100 mM potassium phosphate buffer, pH 8.0, containing 25 mM L-methionine and 10 μM PLP in a glass test tube. The reaction mixture was vortexed immediately and incubated at 37° C. without shaking for precisely 10 minutes. The reaction was stopped by adding 0.5 ml of 50% TCA. The suspension was centrifuged at 13,000 rpm for 2 minutes. The supernatant (0.5 ml) was collected in a glass tube containing 1 ml 1 M acetate buffer, pH 5.0. […] The absorbance of the reaction mixture was measured at 320 nm. The assay was carried out in triplicate. ΔE was calculated by subtracting the average absorbance of blanks from the average absorbance of the reaction mixture. The enzyme activity was calculated by the following equation: Activity (U/ml)=0.548 (1.07+2.2ΔE) ΔE. […]
Athymic nude (nu/nu) mice aged 4 weeks (20-25 g) were used for the study with 4 mice per group. […] The plasma enzyme activity, methionine concentration and PLP level in the plasma, collected at the different time points, were measured as described above. […]

[2] = system: plasma anti-rMETase specific antibody; assay: Plasma anti-rMETase antibody titer by sandwich ELISA after immunization with FCA; assay type: in vivo, BALB/c male mice; settings: mice immunized i.p. with 200 μg in FCA, figures in parentheses = numbers of mice
Procedure: BALB/c male mice were grouped randomly at 5 per group. Each mouse received three i.p. injections of 0.2 ml (200 μg) naked or PEG-rMETase emulsified in Freund's complete adjuvant (FCA) at weekly intervals. Two weeks following the last injection, a booster injection of the rMETase or PEG-rMETase was given to each mouse. Blood samples were collected two weeks after the booster injection, and plasma was separated and stored at −80° C.
Plasma anti-rMETase antibody was measured using a sandwich ELISA technique. 100 μl 200 μg/ml rMETase in 0.1 M carbonate coating buffer, pH 9.5, was added to each well of a 96-well microplate and incubated at 4° C. overnight. The plate was washed three times with PBS washing buffer, pH 7.4, containing 0.05% Tween-20, and blocked for 2 hours at room temperature with 200 μl of PBS assay buffer, pH 7.4, containing 10% FBS. After washing three times, 100 μl of 10-fold serial dilutions of the plasma samples in PBS assay buffer were added to appropriate wells and incubated for 2 hours at room temperature, followed by washing. 100 μl optimally diluted goat anti-mouse IgG and IgM subtypes conjugated with horseradish peroxidase (SIGMA, St. Louis, Mo., USA) were added to each well. The plate was incubated for 1 hour at room temperature and washed three times. 100 μl substrate solution containing O-phenylenediamine dihydrochloride (OPD) and hydrogen peroxide (SIGMA, St. Louis, Mo., USA) were added to each well, followed by 30 min incubation at room temperature. 50 μl 2N sulfuric acid were added to each well to stop the color reaction. The absorbance of each well was measured at 492 nm. The antibody titer was determined as the highest plasma dilution at which the extinction at 492 nm generated in the well of the immune plasma exceeded twice the extinction generated in those wells with negative control plasma.
IgG and IgM anti-rMETase antibody titers of the plasma of the mice immunized with naked or indicated PEGylated rMETase in the presence of FCA were determined using ELISA as described in the Materials and Methods. The figures in parentheses represents the numbers of mice.

[3] = Shionogi Lot No. 8Y003, 50 mM sodium phosphate pH 7.2, 10 μM PLP; cited from earlier work

L-methionine α-deamino-γ-mercaptomethane lyase [Naked rMETase]
Plasma half-life in mice ([1]; 80 U i.v. per mouse, calculated from plasma enzyme activity-time profiles): 2 h
Plasma enzyme activity 24 hours after injection ([1]; 80 units per mouse i.v.): undetectable
Plasma anti-rMETase specific IgG antibody titer [2]: 10^−8 (5)
Plasma anti-rMETase specific IgM antibody titer [2]: 10^−4 (4) and 10^−5 (1)
Plasma anti-rMETase specific IgG antibody titer ([2]; listed as naked rMETase): 10^−8
Plasma anti-rMETase specific IgM antibody titer ([2]; listed as naked rMETase): 10^−4
Specific activity [3]: 50.7 U/mg
